From patent publication US11591366B2, “Macrocyclic compounds and methods of preventing or treating pain” (SOCPRA SCIENCES SANTÉ ET HUMAINES S.E.C., priority 2017, dated 2023)
Where two headings read alike, the source gives them in different places.

Amino acid sequences for entries named in this document (tags omitted).
UniProt P30989, whole entry: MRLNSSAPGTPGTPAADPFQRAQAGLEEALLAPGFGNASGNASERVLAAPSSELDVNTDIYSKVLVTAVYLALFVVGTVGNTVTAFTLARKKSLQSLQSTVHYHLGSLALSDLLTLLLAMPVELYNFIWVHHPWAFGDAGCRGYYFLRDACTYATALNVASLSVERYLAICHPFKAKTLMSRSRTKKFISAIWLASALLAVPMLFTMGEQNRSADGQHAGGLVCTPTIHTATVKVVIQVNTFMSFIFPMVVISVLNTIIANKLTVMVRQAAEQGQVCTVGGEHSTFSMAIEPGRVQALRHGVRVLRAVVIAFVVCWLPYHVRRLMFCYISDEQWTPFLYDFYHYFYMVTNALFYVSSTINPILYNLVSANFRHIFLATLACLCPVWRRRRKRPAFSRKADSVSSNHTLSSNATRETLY

Legend:
Plasma stability assay = type: in vitro ADME; conditions: rat plasma at 37° C.
Method: Rat plasma was obtained by centrifugation of rat blood (13000 rpm, 5 min, 4° C.). […] Proteolytic degradation was quenched by adding 70 μL of acetonitrile/ethanol (1:1), 0.5% nicotinamide solution and vortexing. […] Data were analyzed using GraphPad Prism 7's one phase decay equation.

[1] = molecular target: T1, hNTS1 (β-arrestin 2 recruitment) (Homo sapiens, UniProt P30989); test: BRET biosensor assay, β-arrestin 2 recruitment; type: cell-based
T1 construct: expressed in transfected cells; host or cells: CHO-K1, transient transfection with PEI

[2] = molecular target: T2, hNTS1 (β-arrestin 1 recruitment) (Homo sapiens, UniProt P30989); test: BRET biosensor assay, β-arrestin 1 recruitment; type: cell-based; conditions: CHO-K1 cells transiently transfected with hNTS1 and biosensors, mean ± SEM, read-out: EC50 β-arr1
T2 construct: expressed in transfected cells; host or cells: CHO-K1, transient transfection with PEI

[3] = BRET, CHO-K1 cells transiently transfected with hNTS1 and biosensors, mean ± SEM, read-out: EC50 β-arr2

| EC50 [1, 3] [nM] | Structure (SMILES) | further results |
| --- | --- | --- |
|  | CCC(C)[C@H](NC(=O)[C@@H]1Cc2ccc(O)c(c2)CC=CCNCCCC[C@H](N)C(=O)N[C@@H](CCCCN)C(=O)N2CCC[C@H]2C(=O)N1)C(=O)N[C@@H](CC(C)C)C(=O)O (stereo partly shown) [Compound 2, c[K(All)KPY(All)]IL] | half-life at […] (Plasma stability assay): 19 min; EC50 [1]: 21 ± 0.05 nM |
| 201 ± 0.05 | CCC(C)[C@H](NC(=O)[C@@H]1Cc2ccc(O)c(c2)CC=CCNCCCC[C@@H](N)C(=O)N[C@@H](CCCCN)C(=O)N2CCC[C@H]2C(=O)N1)C(=O)N[C@@H](CC(C)C)C(=O)O (stereo partly shown) [Compound 4, c[K(All)KPY(All)]IL] |  |
| 92 ± 0.05 | CCC(C)[C@H](NC(=O)[C@@H]1Cc2ccc(O)c(c2)CC=CCN(S(=O)(=O)c2ccccc2[N+](=O)[O-])CCCC[C@H](N)C(=O)N[C@@H](CCCCN)C(=O)N2CCC[C@H]2C(=O)N1)C(=O)N[C@@H](CC(C)C)C(=O)O (stereo partly shown) [Compound 5, c[K(All)(S(O)2(o-nitrophenyl))KPY(All)]IL] |  |
| 19 ± 0.04 | CCC(C)[C@H](NC(=O)[C@@H]1Cc2ccc(O)c(c2)CC=CCNCC[C@H](N)C(=O)N[C@@H](CCCCN)C(=O)N2CCC[C@H]2C(=O)N1)C(=O)N[C@@H](CC(C)C)C(=O)O (stereo partly shown) [Compound 8, c[Dab(All)KPY(All)]IL] |  |
|  | CCC(C)[C@H](NC(=O)[C@@H]1Cc2ccc(O)c(c2)CC=CCCNCCCC[C@H](N)C(=O)N[C@@H](CCCCN)C(=O)N2CCC[C@H]2C(=O)N1)C(=O)N[C@@H](CC(C)C)C(=O)O (stereo partly shown) [Compound 9, c[K(butenyl)KPY(All)]IL] | EC50 [2]: 24 ± 0.05 nM |
| 24 ± 0.05 | CCC(C)[C@H](NC(=O)[C@@H]1Cc2ccc(O)c(c2)CC=CCCCNCCCC[C@H](N)C(=O)N[C@@H](CCCCN)C(=O)N2CCC[C@H]2C(=O)N1)C(=O)N[C@@H](CC(C)C)C(=O)O (stereo partly shown) [Compound 10, c[K(pentenyl)KPY(All)]IL] |  |
